The record followed here is patent US6410792B1, “Amide derivatives and methods for using the same as selective neuropeptide Y receptor antagonists” (Bayer Corporation, priority 1997, dated 2002).

The experiment concerns the target T1, Rat NPY5 receptor (Rattus norvegicus, UniProt Q63634).
T1 sequence (Q63634 1-445): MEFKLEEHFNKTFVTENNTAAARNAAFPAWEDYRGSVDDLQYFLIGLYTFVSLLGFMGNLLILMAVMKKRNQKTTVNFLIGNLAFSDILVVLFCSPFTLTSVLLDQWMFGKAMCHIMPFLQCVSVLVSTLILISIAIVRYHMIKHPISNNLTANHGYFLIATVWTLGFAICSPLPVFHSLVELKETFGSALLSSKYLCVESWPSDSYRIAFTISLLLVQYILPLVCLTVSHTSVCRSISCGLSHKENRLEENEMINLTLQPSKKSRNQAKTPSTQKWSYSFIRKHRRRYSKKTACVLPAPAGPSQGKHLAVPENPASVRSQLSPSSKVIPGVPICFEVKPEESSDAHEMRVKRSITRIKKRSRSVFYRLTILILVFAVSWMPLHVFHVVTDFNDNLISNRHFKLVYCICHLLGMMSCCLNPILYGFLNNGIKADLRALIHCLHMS
As to the kind of experiment: Rat NPY5 receptor binding assay ([125I]PYY, membrane protein). As to conditions: [125I]PYY binding, read-out: rNPY5 IC50. The protocol:
C. Human and Rat NPY5 Receptor Binding Assays
Binding assays are performed on GF/C Millipore 96well plates pretreated with 0.02% polyethylenimine. The binding buffer is 25 mM Tris, 120 mM NaCl, 5 mM KCl, 1.2 mM KH2PO4, 2.5 mM CaCl2, 1.2 mM MgSO4, 0.1% BSA and 0.5 mg/ml bacitracin, pH 7.4. Samples consist of membrane protein, 75-100 pM [125I]PYY (porcine, NEN-DuPont) and drug dilution. Nonspecific binding is defined by 1 μM PYY. After a 2 hour incubation at room temperature with constant mixing, the samples are aspirated on a vacuum manifold, and rinsed with ice-cold binding buffer. The amount of radioactivity in each well is quantitated with either gamma counting or liquid scintillation.

“4,4-Dicyano-3-{[(4-cyclohexyl-phenylcarbamoyl)-methyl]-amino)-but-3-enoic acid ethyl ester [Compound 233]”: the IC50 (in general, the point on the concentration scale where inhibition reaches its midpoint) is 880 nM.
